# Reference: ChEMBL document CHEMBL5380778, “Structure-Directed Discovery of Potent Soluble Epoxide Hydrolase Inhibitors for the Treatment of Inflammatory Diseases” (J Med Chem, 2023)
# Test system: Mus musculus
# Assay: Anti-inflammatory activity in L-arginine-induced acute pancreatitis kunming mouse model assessed as reversal of L-arginine induced pancreatic injury by measuring total score at 5 mg/kg, ip pre-treated with L-arginine for 14 hrs followed by compound treatment and measured after 10 hrs by histologic scoring analysis (reference value: 6.25 +/- 0.96)
# Type: functional
structure (smiles),measurement,value
Cc1ccc(-c2cc(C(F)(F)F)nn2-c2ccc(S(N)(=O)=O)cc2)cc1 [CELECOXIB],Activity,3.75
